Experimental data as given in patent publication US20090192097A1, “Synergistic Herbal Composition from Bacopa Species for Management of Neurodegenerative Disorders and a Process of Preparation Thereof” (priority 2006, published 2009).

Chains of the proteins cited; added tags and fusions are not shown.
UniProt P50406, whole entry: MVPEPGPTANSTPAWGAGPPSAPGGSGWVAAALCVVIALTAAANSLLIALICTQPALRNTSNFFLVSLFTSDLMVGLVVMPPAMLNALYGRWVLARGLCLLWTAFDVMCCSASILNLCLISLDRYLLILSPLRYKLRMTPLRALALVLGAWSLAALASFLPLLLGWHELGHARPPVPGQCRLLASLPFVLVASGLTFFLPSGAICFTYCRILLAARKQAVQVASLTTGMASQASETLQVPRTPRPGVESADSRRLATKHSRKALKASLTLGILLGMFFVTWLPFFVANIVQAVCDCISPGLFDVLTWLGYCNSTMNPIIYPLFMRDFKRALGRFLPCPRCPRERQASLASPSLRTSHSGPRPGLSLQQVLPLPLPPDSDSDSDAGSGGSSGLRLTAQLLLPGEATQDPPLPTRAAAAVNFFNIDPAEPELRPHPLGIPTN

Biological target: T1, 5-HT6 receptor (Homo sapiens, UniProt P50406)
T1 construct: expressed in transfected cells; host or cells: HEK 293
Experiment: 5-HT6 receptor binding assay (3H-LSD, filtration format)
Conditions: 100 nM; positive control

SMILES: CSc1ccc2c(c1)C(N1CCN(C)CC1)Cc1ccccc1S2 (stereo not shown) [Methiothepin]
- Average % inhibition: 84.53%
